This test has as its target proteasome caspase-like (Casp-L) sites in HEK-293T cells (Homo sapiens, UniProt P28072+Q99436). It is filed as cell-based.

The chains behind the UniProt entries cited, without tags or fusion partners. Where a name states a change or a piece, a line headed by the entry shows the natural chain unless it says otherwise.
UniProt P28072: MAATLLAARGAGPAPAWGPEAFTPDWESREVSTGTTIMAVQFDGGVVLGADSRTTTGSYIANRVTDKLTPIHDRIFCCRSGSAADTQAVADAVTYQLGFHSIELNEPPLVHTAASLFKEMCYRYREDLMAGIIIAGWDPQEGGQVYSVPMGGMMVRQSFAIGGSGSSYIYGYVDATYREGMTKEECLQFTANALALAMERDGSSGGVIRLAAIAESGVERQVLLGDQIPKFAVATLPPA
UniProt Q99436: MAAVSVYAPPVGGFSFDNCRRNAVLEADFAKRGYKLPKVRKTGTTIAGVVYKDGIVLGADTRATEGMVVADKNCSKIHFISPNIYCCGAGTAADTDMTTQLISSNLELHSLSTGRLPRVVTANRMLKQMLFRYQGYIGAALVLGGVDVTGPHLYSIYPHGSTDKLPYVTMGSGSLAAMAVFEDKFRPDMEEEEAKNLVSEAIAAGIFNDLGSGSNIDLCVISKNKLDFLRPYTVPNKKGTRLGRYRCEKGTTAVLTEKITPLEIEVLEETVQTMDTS

Bounds are passed on as bounds.

For orientation: IC50 means the concentration that inhibits the measured activity by half. A low value points to greater potency. For the compound `CC(C)C[C@H](NC(=O)[C@H](Cc1ccncc1)NC(=O)[C@H](Cc1ccccc1)N=[N+]=[N-])C(=O)N[C@H](/C=C/S(C)(=O)=O)Cc1ccc(CN)cc1` [compound 10], the IC50 was more than 50 µM.

The values are drawn from PMC3782865 (Journal of medicinal chemistry, 2013).
